Experimental data published in paper PMC8175309, “Translational CNS Steady-State Drug Disposition Model in Rats, Monkeys, and Humans for Quantitative Prediction of Brain-to-Plasma and Cerebrospinal Fluid-to-Plasma Unbound Concentration Ratios” (The AAPS Journal, 2021).

Protein sequences, listed by entry. Tags and fused reporters are not part of them. Lines headed by an entry give the natural chain unless they say otherwise; changes in a name come on top.
UniProt Q9UNQ0: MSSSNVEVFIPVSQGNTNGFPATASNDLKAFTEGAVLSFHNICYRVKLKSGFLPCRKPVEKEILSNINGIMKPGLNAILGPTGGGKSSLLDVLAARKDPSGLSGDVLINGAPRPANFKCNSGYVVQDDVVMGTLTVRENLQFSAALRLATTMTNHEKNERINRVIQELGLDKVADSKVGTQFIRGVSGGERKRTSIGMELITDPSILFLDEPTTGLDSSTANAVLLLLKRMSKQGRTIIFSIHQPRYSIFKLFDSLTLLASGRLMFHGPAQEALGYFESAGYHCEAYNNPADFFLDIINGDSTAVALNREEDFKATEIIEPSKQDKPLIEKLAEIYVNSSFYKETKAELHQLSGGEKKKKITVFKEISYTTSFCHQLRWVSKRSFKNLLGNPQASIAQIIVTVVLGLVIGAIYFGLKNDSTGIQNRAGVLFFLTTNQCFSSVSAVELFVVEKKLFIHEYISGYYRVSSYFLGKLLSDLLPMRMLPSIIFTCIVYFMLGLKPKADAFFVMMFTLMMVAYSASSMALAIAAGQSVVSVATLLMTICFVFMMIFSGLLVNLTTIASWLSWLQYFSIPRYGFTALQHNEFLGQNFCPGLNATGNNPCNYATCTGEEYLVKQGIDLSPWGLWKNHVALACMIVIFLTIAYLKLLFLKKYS

Target: BCRP (Homo sapiens, UniProt Q9UNQ0)
Assay: Transcellular transport across MDCK-BCRP cell monolayers (efflux ratio)
Details: MDCK-BCRP cells, 1 μM, 1 h, Papp,BtoA/Papp,AtoB; *1 data internally obtained

SMILES | Efflux ratio BCRP
O=C1NC(=O)C(c2ccccc2)(c2ccccc2)N1 [Phenytoin] | 1.0
CC(C)Nc1cccnc1N1CCN(C(=O)c2cc3cc(NS(C)(=O)=O)ccc3[nH]2)CC1 [Delavirdine] | 38.0
O=c1c(-c2ccc(O)cc2)coc2cc(O)cc(O)c12 [Genistein] | 26.0
CN(C)CCCC1(c2ccc(F)cc2)OCc2cc(C#N)ccc21 (stereo not shown) [Citalopram] | 0.6
